According to ChEMBL document CHEMBL1124528, “Tetrahydrothiadiazoloisoquinolines: synthesis and inhibition of phenylethanolamine-N-methyltransferase” (J Med Chem, 1989):

Test system: Phenylethanolamine N-methyltransferase (rabbit)
Assay: Ability to inhibit rabbit adrenal phenylethanolamine N-methyl-transferase norepinephrine to epinephrine (E13), in vitro, at 10 e-6 M
Conditions: Oryctolagus cuniculus

For c1cc2nsnc2c2c1CCNC2, the inhibition was 79%.
